This note sets out measurements from patent US20090318496A1, “PREPARATION CONTAINING FIBRATE AGENT AND PROCESS FOR PRODUCING THE SAME” (ASKA Pharmaceutical Co., Ltd., priority 2006, published 2009).

The assay concerns lipid and others in blood (TC, TG, PL, NEFA in serum). In words: Decrease of lipid in blood by combination use of fenofibrate and pitavastatin in dog (serum TC, TG, PL, NEFA). Type of assay: in vivo. As to the method:
Examination of decrease of lipid and others in blood by combination use of fenofibrate (FEN) and pitavastatin (PIT) in dog
Dogs [female and male beagles (YAKUKEN BEAGLE) (11 male dogs and 2 female dogs, 27 to 73 months old)] were used for the examination. Incidentally, each of the dogs was accommodated in a separate bracket cage in a breeding room under the following conditions: a room temperature of 23±3° C., a humidity of 50±10%, a light period of 8:00 to 20:00, and a dark period of 20:00 to 8:00. Moreover, the dog was given 300 g of CD-5M (manufactured by CLEA Japan, Inc.) as a food once a day. Incidentally, the dog was freely allowed to have tap water.
Fenofibrate (FEN) (20 mg/kg) and pitavastatin (PIT) (2 mg/kg) were used as test substances.
Four hours (Day0-4 hr) and 24 hours (Day0-24 hr) after feeding on the day before the administration start day, blood was collected from antebrachial radial veins, and serum and plasma containing sodium citrate (a citric sodium aqueous solution having a concentration of 3.8% by weight) were obtained. Then using the serum, the total cholesterol (TC), the triglyceride (TG), the phospholipid (PL), and the free fatty acid (NEFA) were quantitatively determined by a Toshiba automatic analyzer (manufactured by Toshiba Medical Systems Corporation, TBA-120FR). Moreover, using the sodium citrate-containing plasma, the amount of fibrinogen was quantitatively determined in accordance with the thrombin time method.
Thereafter, FEN alone in a dose of 20 mg/kg was orally administered to a first group of dogs once a day for continuous 7 days (FEN group); PIT alone in a dose of 2 mg/kg was orally administered to a second group of dogs once a day for continuous 7 days (PIT group); and FEN in a dose of 20 mg/kg and PIT in a dose of 2 mg/kg were orally administered to a third group of dogs once a day for continuous 7 days (combination group). Incidentally, feeding was performed immediately after every administration.
Blood was collected after 4 hours of the seventh administration (Day7-4 hr). Using the same manner as in the case of the Day0-4 hr, serum and sodium citrate-containing plasma were obtained, and each of the examinations was performed.
The quantitation results were shown as “an average value±a standard error”. The statistics analysis was performed as follows: each difference between the quantitative value at Day0-4 hr and each at the blood-collected times after the administration was calculated with respect to every dog, and a difference between the average quantitative value of the FEN group or PIT group and that of the combination group was tested by using Student's t test (one-sided test) when homoscedasticity therebetween was identified by F test or by using Wilcoxon Rank Sum test (one-sided test) when homoscedasticity therebetween was not identified by F test. Incidentally, the obtained value from each test was regarded as a significant difference when the difference value was less than 5%.
Incidentally, the relative index of each component was calculated based on the formula: (the average value of the concentration in the blood after the administration)/(the average value of the concentration in the blood before the administration).

Setting [1] is: Day 7-4 hr, FEN 20 mg/kg and/or PIT 2 mg/kg orally for 7 days.

Consider `CC(C)OC(=O)C(C)(C)Oc1ccc(C(=O)c2ccc(Cl)cc2)cc1` [FEN, Fenofibrate], for which the ΔTC (Day 7-4 hr minus Day0-4 hr, FEN 20 mg/kg and/or PIT 2 mg/kg orally once a day for 7 days, average ± standard error) was -21.4 ± 3.9 mg/dL. In addition, under setting [1], the “Relative index of NEFA (average concentration after/before administration)” value was 0.887, the “Relative index of PL (average concentration after/before administration)” value was 0.773, the “Relative index of TC (average concentration after/before administration)” value is 0.827 and the “Relative index of TG (average concentration after/before administration)” value came out at 0.308.
